Data reported in the NIST ThermoML archive (doi:10.1016/j.tca.2010.05.009).
Numbers after ± are expanded uncertainties.

Assay: Molar enthalpy of transition or fusion
Conditions: Crystal; Differential scanning calorimeter

Molar enthalpy of transition or fusion: 6.21 ± 0.741 kcal/mol
Compound: CC(C)Cc1ccc(C(C)C(=O)O)cc1 (stereo unspecified) [ibuprofen]
